From ChEMBL document CHEMBL5042532, “Discovery of N-(4-(Benzyloxy)-phenyl)-sulfonamide Derivatives as Novel Antagonists of the Human Androgen Receptor Targeting the Activation Function 2” (J Med Chem, 2022)

System: LNCaP
Assay: Downregulation of RACGAPI mRNA expression in human LNCaP cells at 0.1 to 1 uM measured after 48 hrs by qRT-PCR analysis
Type: functional, cell-based
Conditions: dose 0.1-1 µM

With `CNC(=O)c1ccc(N2C(=S)N(c3ccc(C#N)c(C(F)(F)F)c3)C(=O)C2(C)C)cc1F` [ENZALUTAMIDE] the Activity was “Active”.

Activity calls are given as the source filed them. The rule behind the calls is not given here.
